Target: T1, Tyrosine-protein phosphatase non-receptor type 1 (Homo sapiens, UniProt P18031)
T1 sequence (P18031 whole entry): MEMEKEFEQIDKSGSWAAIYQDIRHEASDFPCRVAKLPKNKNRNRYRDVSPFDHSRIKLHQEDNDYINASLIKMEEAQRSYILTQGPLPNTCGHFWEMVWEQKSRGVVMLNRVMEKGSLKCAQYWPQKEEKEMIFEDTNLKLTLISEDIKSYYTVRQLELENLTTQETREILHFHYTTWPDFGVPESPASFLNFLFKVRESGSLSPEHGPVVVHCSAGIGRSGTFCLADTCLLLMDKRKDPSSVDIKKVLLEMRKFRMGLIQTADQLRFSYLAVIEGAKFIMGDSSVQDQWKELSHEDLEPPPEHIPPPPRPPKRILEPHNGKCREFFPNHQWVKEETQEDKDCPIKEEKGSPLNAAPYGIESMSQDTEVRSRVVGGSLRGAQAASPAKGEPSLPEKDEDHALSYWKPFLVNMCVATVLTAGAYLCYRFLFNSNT

Ki: 230 nM
Compound: O=C(O)COc1c(C(=O)O)sc2ncccc12

— ChEMBL document CHEMBL6121069, “A Medicinal Chemistry Perspective on Protein Tyrosine Phosphatase Nonreceptor Type 2 in Tumor Immunology” (J Med Chem, 2025)
